Data reported in patent publication US6602856B1, “Antagonists of alpha-melanocyte stimulating hormone and methods based thereon” (priority 1995, dated 2003).
Read-outs that look alike come from different tables or passages of the source.

Biological target: T1, endogenous amphibian MSH-receptors (Xenopus laevis, UniProt A0A1L8GF34)
T1 sequence (A0A1L8GF34 1-317): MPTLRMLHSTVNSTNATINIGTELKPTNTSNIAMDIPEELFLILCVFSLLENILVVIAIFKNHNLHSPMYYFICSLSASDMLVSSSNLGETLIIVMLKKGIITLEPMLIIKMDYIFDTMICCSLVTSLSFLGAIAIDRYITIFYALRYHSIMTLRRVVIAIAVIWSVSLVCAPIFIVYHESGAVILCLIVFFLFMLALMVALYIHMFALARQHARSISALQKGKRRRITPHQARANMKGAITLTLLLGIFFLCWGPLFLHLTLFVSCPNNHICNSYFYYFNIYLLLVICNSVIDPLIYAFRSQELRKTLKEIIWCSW
Type: cell-based
Conditions: for IC50: mean±SE
Procedure: Melanin dispersion responses were quantitated by measuring transmittance through a monolayer of cultured melanophores pretreated with 1 nM melatonin (Potenza, et. al., 1992, Anal Biochem. 206, 315-22) and curve fit with a logistic equation (De Lean et al., 1978, Am J. Physiol. 235, E97-E102).
Broken lines indicate 99% confidence level.
Each point represents the mean and SSD of four independent transmittance measurements. Ti=initial transmittance (2 min.). Tf=final transmittance (60 min.).
For dose-response studies all tripeptides were synthesized on Rink Amide MBHA resin 0.25 mmol scale using standard Fmoc chemistry. After synthesis, peptides were purified suing HPLC and reverse-phase chromatography on a C18 column. The dose-response curves were obtained by microtiter plate assays (Potenza et al, 1992, Pigment Cell Res. 5, 372-378). Melanophore cells (18,000/well) were plated on 96-well tissue culture plates (Falcon).

[1] = against 15 nM α-MSH, melanophores pretreated with 1 nM melatonin

Ac-D-Trp-Arg-Nle-NH2 [C3]
IC50 [1]: 43 ± 8 µM

D-His-Arg-Nle-NH2 [C5]
IC50 [1]: 318 ± 105 µM

D-Phe-Arg-Nle-NH2 [C1]
IC50 [1]: 4.4 ± 1.2 µM

D-Trp-Abu-Nle-NH2 [B7]
IC50 [1]: 405 ± 69 µM

D-Trp-Ala-Nle-NH2 [B5]
IC50 [1]: 65 ± 18 µM

D-Trp-Arg-Abu-NH2 [A7]
IC50 [1]: 82 ± 41 µM

D-Trp-Arg-Arg-NH2 [A9]
IC50 [1]: 261 ± 68 µM

D-Trp-Arg-D-Arg-NH2 [A10]
IC50 [1]: 664 ± 397 µM

D-Trp-Arg-D-Nle-NH2 [A5]
IC50 [1]: 9.9 ± 1.8 µM

D-Trp-Arg-Nle-NH2 [A2]
IC50 (against 15 nM α-MSH): 0.93 ± 0.22 µM
IC50 [1]: 0.93 ± 0.22 µM
IC50 (against 15 Nm α-MSH): 0.93 ± 0.22 µM

D-Trp-Arg-Nva-NH2 [A3]
IC50 [1]: 3.3 ± 1.1 µM

D-Trp-D-Arg-Nle-NH2 [B2]
IC50 [1]: 30 ± 11 µM

D-Trp-Leu-Nle-NH2 [B3]
IC50 [1]: 48 ± 2.2 µM

D-Trp-Lys-Nle-NH2 [B1]
IC50 [1]: 15 ± 1 µM

D-Trp-Met-Nle-NH2 [B6]
IC50 [1]: 121 ± 27 µM

D-Trp-Nle-Nle-NH2 [B4]
IC50 [1]: 59 ± 12 µM

D-Tyr-Arg-Nle-NH2 [C2]
IC50 [1]: 28 ± 2 µM

Trp-Arg-Nle-NH2 [C4]
IC50 [1]: 100 ± 2 µM

α-melanocyte stimulating hormone [α-MSH, reference compound]
EC50 (agonist, Xenopus melanophores, read-out: EC50 (pigment dispersion)): ~0.002 µM
EC50 (pigment dispersion, transmittance 2 min to 60 min, FIG. 5, read-out: EC50 for α-MSH alone): 0.0025 ± 0.0003 µM
